Results as given in patent US7435438B1, “Disinfectant and method of use” (Pure BioScience, priority 2003, dated 2008).
Where two headings read alike, the source gives them in different places.

Tests used:
[1] = system: Salmonella cholerasuis strain ATCC 10708
[2] = system: Staphylococcus aureus strain ATCC 6538; conditions: between 15 seconds and 30 minutes
[3] = system: pseudomonas aeruginosa strain ATCC 15442; conditions: between 15 seconds and 30 minutes

Row | SMILES | disinfection (in words) ([1]; after 30 minutes of contact time) | disinfection (in words) ([1]; all time periods up to 30 minutes) | log10 reduction ([1]; contact time 1 minute, inoculum approx. 1.0×10^6 CFU/mL) | reduction / effectiveness (in words) [2] | reduction (in words) [3]
1 | CCO [20% ethanol, ethanol] | Near complete disinfection | slow, but complete disinfection | ~1.0 log10 | No significant reduction | no significant reduction
2 | O=C(O)CC(O)(CC(=O)O)C(=O)O [citric acid] |  |  |  | Neither citric acid nor copper:citric acid was effective | no significant reduction
